Test [1] relates to serum cytokine/chemokine/growth factor/ligands of ALS patient. The test can be described thus: Serum Luminex, before and after NAC treatment. In kind it is in vivo, human. The method, then: Increased cytokine/chemokine/growth factor/ligands in serum of ALS patient compared to healthy twin and control (Tables 85-86 and FIG. 69). Serum Luminex. Serum from patients were used to determine the levels of cytokine/chemokine/growth factor/ligands secretion using multiplex luminex assay. Scatter plot was prepared using the levels of cytokine/chemokine/growth factor/ligands in serum obtained at different dates from patients as compared to controls.
Increased cytokine/chemokine/growth factor/ligands in serum of ALS patients compared to healthy twin (Tables 87-89). Serum Luminex. Serum from patients were used to determine the levels of cytokine/chemokine/growth factor/ligands secretion using multiplex luminex assay.
21 plex before NAC. Serum Luminex. Serum from patients were used to determine the levels of cytokine/chemokine/growth factor/ligands secretion using multiplex luminex assay. Scatter plot was prepared using the levels of cytokine/chemokine/growth factor/ligands in serum obtained at different dates from patients as compared to controls.
Serum Luminex. Serum from patients were used to determine the levels of cytokine/chemokine/growth factor/ligands secretion using multiplex luminex assay. Scatter plot was prepared using the levels of cytokine/chemokine/growth factor/ligands in serum obtained at different dates from patients as compared to controls.
Fold increase in respective cytokines before and after NAC treatment in serum from ALS patient as compared to healthy twin. […] Serum Luminex. Serum from patients were used to determine the levels of cytokine/chemokine/growth factor/ligands secretion using multiplex luminex assay. Scatter plot was prepared using the levels of cytokine/chemokine/growth factor/ligands in serum obtained at different dates from patients as compared to controls.

In a further test the test system is ALS. Conditions: cited from earlier work.
The mark [2] stands for this setting: JC sera Apr. 30, 2020 (NAC infusion).

Consider `CC(=O)N[C@@H](CS)C(=O)O` [NAC, N-Acetyl-Cysteine], for which the IL-5 was determined as 2.13 in test [1] (Ave JC 4/5 to 6/24); 2.13 pg/mL in test [1] (Ave JC sera for NAC infusion); 2.05 pg/mL in test [1] (JC sera May 12, 2020). The IL-6 amounted to 1.55 pg/mL in test [1] (JC sera Apr. 16, 2020); 1.55 pg/mL in test [1] (JC sera Apr. 23, 2020); 2.34 pg/mL in test [1] (JC sera Apr. 30, 2020); 1.31 pg/mL in test [1] (JC sera Jun. 24, 2020). Moreover, the IL-13 in test [1] (setting [2]) was found to be 4.26 pg/mL. The IL-17A was 5.22 pg/mL in test [1] (setting [2]) and 2.85 pg/mL in test [1] (JC sera May 21, 2020 (NAC infusion)).
With `Nc1nc2ccc(OC(F)(F)F)cc2s1` [Riluzole], in the test with ALS, the “increase of survival rates at 12 months” value is on record as 10% and the prolongation of survival is 6 months.
